Values quoted from earlier work in publication PMC3825844 (Analytical biochemistry, 2013).

System: PXR-SRC (steroid receptor coactivator) tethered protein
Details: read-out: hypothetical Kd, circular dichroism; cited from earlier work

Substance: Hyperforin
- Kd: 50 nM
